# Binding of CDR-mutated scFvs to a peptide of the spike HR2 region

Data: MIT Lincoln Laboratory AlphaSeq set, Engelhart et al. 2022, doi:10.1038/s41597-022-01779-4, as distributed in FLAb.

Target: peptide PDVDLGDISGINAS, taken from heptad repeat 2 (HR2) of SARS-CoV-2 spike.

Parent scFv Ab-14: VH joined to VL by a (GGGGS)3 linker. Changes lie in the heavy chain CDRs alone.
VH: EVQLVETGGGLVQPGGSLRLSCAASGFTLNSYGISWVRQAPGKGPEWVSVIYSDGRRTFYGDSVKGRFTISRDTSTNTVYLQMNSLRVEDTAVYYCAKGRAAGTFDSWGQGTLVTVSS
VL: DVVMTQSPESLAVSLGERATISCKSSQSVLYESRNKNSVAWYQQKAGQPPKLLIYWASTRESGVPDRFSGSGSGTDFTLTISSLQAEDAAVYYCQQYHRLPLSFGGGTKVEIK

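Phage display of a naive human antibody library on the peptide gave the parent. Library AAYL49 holds single substitutions and randomly drawn double and triple substitutions in the CDRs. The scFvs were displayed on barcoded MATa yeast, the peptide on MATalpha yeast. After mating in shaken culture at 30 °C for 16 h, diploids were selected and their barcode pairs sequenced. A regression on co-assayed BCL2-family reference pairs converts the normalised counts of each replicate to an apparent Kd. Each pool was mated in three replicate cultures.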

Variants are written as CDR1, CDR2 and CDR3 of the heavy chain (limits as in the source). Parent: GFTLNSYGIS, VIYSDGRRTFYGDSVK, GRAAGTFDS. Numbers give log10(Kd / nM), so 0 is 1 nM and 3 is 1 µM. Smaller is tighter. Replicates are averaged; those with no signal do not enter the mean. An entry "ND" has no value in the source: the pair was not observed among the diploids in that replicate. This suggests poor binding but is not conclusive. As a blank, each scFv also met three strains without target: over library AAYL49, 15% of these pairings were detected, typically at 4.06 and seldom below 2.83. Also given: how often the same scFv was detected with the empty control strains, with their mean in brackets. For reference, the parent read 0.65 as the reference entry and 4.11 (one replicate of three) as a member of this library.

| # | CDR-H1 | CDR-H2 | CDR-H3 | log10 Kd (nM) by replicate | log10 Kd (nM), mean | control signals |
|---|---|---|---|---|---|---|
| 1 | GFTLNSYGIF | VIYSDGRRRFYFDSVK | GRAAGTFDS | ND / ND / ND | ND | 0 of 9 |
| 2 | GFWLNSYGIS | VIYSEGRRTFYGDSVK | GRAAGSFDS | ND / ND / ND | ND | 0 of 9 |
| 3 | GFTLNSYGIS | VIYSDGRRMFYGDSVG | GRAAGTFDG | ND / 4.22 / ND | 4.22 | 2 of 9 (4.03) |
| 4 | GFTENSYGDS | VIYSDGRRTFYGDSVK | GRAAGTFDS | ND / ND / ND | ND | 0 of 9 |
| 5 | GFTLNSYGIS | VIYSDWRRTYYGDSVK | GRAAATFDS | 3.47 / ND / ND | 3.47 | 1 of 9 (4.19) |
| 6 | GFTSNSYGIS | VIYSDGRRTFYGDSVK | GRAADNFDS | ND / ND / ND | ND | 0 of 9 |
| 7 | GFTLNSYGIS | VIYSDGRRTIYGDSVK | GRNAGTFDL | 4.05 / 4.08 / ND | 4.06 | 0 of 9 |
| 8 | GFTLNSYGIS | VIYSDGTRTFNGDSVD | GRAAGTFDS | ND / ND / ND | ND | 3 of 9 (4.16) |
| 9 | GFTLNSYGIS | VIYSVGRRTFYGDSVA | GRAAGTFLS | ND / ND / 4.44 | 4.44 | 0 of 9 |
| 10 | GFTLCSYTIS | VIYSDGRRTFYGDSVK | GRAAGFFDS | ND / 3.77 / 3.99 | 3.88 | 4 of 9 (4.28) |
| 11 | GFTLNSYGIS | VIYSDGYRTFYGDSVK | GRNAGPFDS | 3.29 / 2.84 / 3.38 | 3.17 | 1 of 9 (5.10) |
| 12 | GFTLNSYGIS | VIDSDGRRTFYGDSVK | LDAAGTFDS | ND / ND / ND | ND | 0 of 9 |
| 13 | GFTLNSYGIS | VIYVDGRRTFYGDSVK | RRAAGTYDS | ND / ND / ND | ND | 0 of 9 |
| 14 | GFTLRSYGIS | VIYSDGRRTFYGYSVP | GRAAGTFDS | ND / ND / ND | ND | 1 of 9 (4.06) |
| 15 | GFTLNSYGIS | VIYSDGRRRFYHDSVK | GRAAGFFDS | ND / 3.16 / 3.78 | 3.47 | 0 of 9 |
| 16 | GFTLNSYGIS | VIYSDGVRTFYGDSVK | GRAAGTLDF | 2.03 / 2.07 / 1.77 | 1.96 | 3 of 9 (4.08) |
| 17 | GFTENSYGIS | VIYSDGYRTFYGDSVI | GRAAGTFDS | ND / ND / ND | ND | 0 of 9 |
| 18 | GNTLNSYGIS | VIYSDGRNTFYGDSVK | GRAAGTFDT | 3.09 / 3.65 / 3.40 | 3.38 | 3 of 9 (4.61) |
| 19 | GFTLCSYGIS | VILSDGRRTFYGDSEK | GRAAGTFDS | ND / ND / ND | ND | 1 of 9 (2.88) |
| 20 | GFTLNSYGCS | VIYSDGRRTFWGDPVK | GRAAGTFDS | 5.05 / 3.35 / ND | 4.20 | 5 of 9 (4.74) |
| 21 | GFTLNSYKIS | VIYSDGRRTFYGDSVK | GMAAGTKDS | ND / ND / ND | ND | 0 of 9 |
| 22 | GFTLNSYGIS | VIIDDGRRTFYGDSVK | GRAAGTDDS | ND / ND / ND | ND | 1 of 9 (4.61) |
| 23 | GFTLNSYGIL | VIYSDGRLTFYGDSVK | GRACGTFDS | ND / ND / ND | ND | 1 of 9 (2.97) |
| 24 | GFTLNAYWIS | VIYSDQRRTFYGDSVK | GRAAGTFDS | ND / ND / ND | ND | 0 of 9 |
| 25 | GFTCNSYGTS | VIYSDGKRTFYGDSVK | GRAAGTFDS | ND / ND / ND | ND | 0 of 9 |
| 26 | GFSLNSYGIS | VIYSDGRRTWYGDSVK | GWAAGTFDS | 1.05 / 1.15 / 1.19 | 1.13 | 4 of 9 (4.06) |
| 27 | GFTLNSYGIS | LIYSPGRRTFYGCSVK | GRAAGTFDS | ND / 3.31 / ND | 3.31 | 2 of 9 (3.98) |
| 28 | GFTLNSYGIS | VIYSDGRRTFYGDSVD | LRAAGTFDI | ND / ND / ND | ND | 0 of 9 |
| 29 | GFTLNSYGIS | VIYSDGRRTQRGDSVK | DRAAGTFDS | ND / 5.18 / ND | 5.18 | 4 of 9 (4.40) |
| 30 | GFTLNSYGIF | VIYSYGDRTFYGDSVK | GRAAGTFDS | ND / ND / ND | ND | 0 of 9 |
| 31 | GFTLNSYGIS | VIYSDGRKTFYGDSVK | GRAFGTFDT | ND / ND / ND | ND | 3 of 9 (4.04) |
| 32 | GFTLNSYIIS | VIYSDGMRTFYGDSVK | GRAAGTFDC | 4.78 / 4.95 / 5.17 | 4.97 | 6 of 9 (3.56) |
| 33 | GFTLNSYGMS | VIYSMGRRTFYGDSVK | GRAAGEFDS | ND / ND / ND | ND | 0 of 9 |
| 34 | GFTLNSYGIS | VIYWDGNRTFYGDSVK | GRAASTFDS | ND / 3.69 / ND | 3.69 | 0 of 9 |
| 35 | GFTLNSYGGS | VIYSEGRRTFYGDSVK | GRAAGTFIS | ND / ND / ND | ND | 0 of 9 |
| 36 | PFTLNSYGIS | VIYSDGRRTFYGDSVK | NRAAGTFDT | ND / ND / 5.36 | 5.36 | 4 of 9 (4.13) |
| 37 | GFTLNSRGIS | VIYSDGRRTFPGDSVK | GRAACTFDS | ND / ND / ND | ND | 1 of 9 (2.94) |
| 38 | GFTLNSMGIS | VIYSDARTTFYGDSVK | GRAAGTFDS | ND / ND / ND | ND | 0 of 9 |
| 39 | GFGLNSPGIS | VPYSDGRRTFYGDSVK | GRAAGTFDS | 4.99 / ND / ND | 4.99 | 0 of 9 |
| 40 | IFTLNSYGIS | VRYSDGRWTFYGDSVK | GRAAGTFDS | ND / ND / ND | ND | 1 of 9 (4.85) |
| 41 | GFTLNSYGIS | VIYSDGRRTKYGDSVK | GKAYGTFDS | ND / ND / ND | ND | 0 of 9 |
| 42 | GFTLNSYGIS | VIYSDGVRTFDIDSVK | GRAAGTFDS | 0.43 / 1.18 / 1.01 | 0.87 | 1 of 9 (4.17) |
| 43 | GFTLNSYGIS | VVYSDGRRTFYNDSVD | GRAAGTFDS | ND / ND / ND | ND | 0 of 9 |
| 44 | GFTLNEYGIS | VIYSDGRRTFYGDSVK | GRAAGFFDK | 1.45 / 1.47 / 1.94 | 1.62 | 4 of 9 (4.04) |
| 45 | GFTLNSYGIS | VIYSDGNRTFYGDSVK | GRAAGAFWS | ND / ND / ND | ND | 2 of 9 (3.20) |
| 46 | GFTDNSYGIS | CIYSDGRRTFYGDSVK | GRAAGTFDS | ND / ND / ND | ND | 1 of 9 (2.60) |
| 47 | WFTLNSYGIG | VIYSDGRRTFGGDSVK | GRAAGTFDS | ND / ND / ND | ND | 0 of 9 |
| 48 | GFFLNSYGRS | VIYSDGGRTFYGDSVK | GRAAGTFDS | ND / ND / ND | ND | 1 of 9 (3.73) |
| 49 | GFGLNSYGIS | VIYSDGPRTFYGDSVK | GRAAGTFAS | ND / 3.78 / ND | 3.78 | 2 of 9 (3.87) |
| 50 | GFTPNSYGIS | VIYSDGRRLFYGDSVE | GRAAGTFDS | 5.77 / 4.46 / ND | 5.11 | 5 of 9 (4.29) |
| 51 | GFTANSYGIS | VIYSDGPRTCYGDSVK | GRAAGTFDS | ND / ND / ND | ND | 2 of 9 (3.81) |
| 52 | GFTLNSYFIS | NIYSDGRRTFYGCSVK | GRAAGTFDS | ND / ND / ND | ND | 3 of 9 (4.20) |

Excerpt, the final 8 entries:

| CDR-H1 | CDR-H2 | CDR-H3 | log10 Kd (nM) by replicate | log10 Kd (nM), mean | control signals |
|---|---|---|---|---|---|
| GFTLNSYGIS | VIYSDGNRTFYGDSVK | GRAAGAFWS | ND / ND / ND | ND | 2 of 9 (3.20) |
| GFTDNSYGIS | CIYSDGRRTFYGDSVK | GRAAGTFDS | ND / ND / ND | ND | 1 of 9 (2.60) |
| WFTLNSYGIG | VIYSDGRRTFGGDSVK | GRAAGTFDS | ND / ND / ND | ND | 0 of 9 |
| GFFLNSYGRS | VIYSDGGRTFYGDSVK | GRAAGTFDS | ND / ND / ND | ND | 1 of 9 (3.73) |
| GFGLNSYGIS | VIYSDGPRTFYGDSVK | GRAAGTFAS | ND / 3.78 / ND | 3.78 | 2 of 9 (3.87) |
| GFTPNSYGIS | VIYSDGRRLFYGDSVE | GRAAGTFDS | 5.77 / 4.46 / ND | 5.11 | 5 of 9 (4.29) |
| GFTANSYGIS | VIYSDGPRTCYGDSVK | GRAAGTFDS | ND / ND / ND | ND | 2 of 9 (3.81) |
| GFTLNSYFIS | NIYSDGRRTFYGCSVK | GRAAGTFDS | ND / ND / ND | ND | 3 of 9 (4.20) |